Test: soluble on expression in E. coli; label from the status in PepcDB or PDB records

Sequence	soluble on expression in E. coli
MIPGEYHVKPGQIALNTGRATCRVVVENHGDRPIQVGSHYHFAEVNPALKFDRQQAAGYRLNIPAGTAVRFEPGQKREVELVAFAGHRAVFGFRGEVMGPLEVNDE	soluble
MIRLYPEQLRAQLNEGLRAAYLLLGNDPLLLQESQDAVRQVAAAQGFEEHHTFSIDPNTDWNAIFSLCQAMSLFASRQTLLLLLPENGPNAAINEQLLTLTGLLHDDLLLIVRGNKLSKAQENAAWFTALANRSVQVTCQTPEQAQLPRWVAARAKQLNLELDDAANQVLCYCYEGNLLALAQALERLSLLWPDGKLTLPRVEQAVNDAAHFTPFHWVDALLMGKSKRALHILQQLRLEGSEPVILLRTLQRELLLLVNLKRQSAHTPLRALFDKHRVWQNRRGMMGEALNRLSQTQLRQAVQLLTRTELTLKQDYGQSVWAELEGLSLLLCHKPLADVFIDG	soluble
MRWYPWLRPDFEKLVASYQAGRGHHALLIQALPGMGDDALIYALSRYLLCQQPQGHKSCGHCRGCQLMQAGTHPDYYTLAPEKGKNTLGVDAVREVTEKLNEHARLGGAKVVWVTDAALLTDAAANALLKTLEEPPAETWFFLATREPERLLATLRSRCRLHYLAPPPEQYAVTWLSREVTMSQDALLAALRLSAGSPGAALALFQGDNWQARETLCQALAYSVPSGDWYSLLAALNHEQAPARLHWLATLLMDALKRHHGAAQVTNVDVPGLVAELANHLSPSRLQAILGDVCHIREQLMSVTGINRELLITDLLLRIEHYLQPGVVLPVPHL	soluble
MSGWESYYKTEGDEEAEEEQEENLEASGDYKYSGRDSLIFLVDASKAMFESQSEDELTPFDMSIQCIQSVYISKIISSDRDLLAVVFYGTEKDKNSVNFKNIYVLQELDNPGAKRILELDQFKGQQGQKRFQDMMGHGSDYSLSEVLWVCANLFSDVQFKMSHKRIMLFTNEDNPHGNDSAKASRARTKAGDLRDTGIFLDLMHLKKPGGFDISLFYRDIISIAEDEDLRVHFEESSKLEDLLRKVRAKETRKRALSRLKLKLNKDIVISVGIYNLVQKALKPPPIKLYRETNEPVKTKTRTFNTSTGGLLLPSDTKRSQIYGSRQIILEKEETEELKRFDDPGLMLMGFKPLVLLKKHHYLRPSLFVYPEESLVIGSSTLFSALLIKCLEKEVAALCRYTPRRNIPPYFVALVPQEEELDDQKIQVTPPGFQLVFLPFADDKRKMPFTEKIMATPEQVGKMKAIVEKLRFTYRSDSFENPVLQQHFRNLEALALDLMEPEQAVDLTLPKVEAMNKRLGSLVDEFKELVYPPDYNPEGKVTKRKHDNEGSGSKRPKVEYSEEELKTHISKGTLGKFTVPMLKEACRAYGLKSGLKKQELLEALTKHFQD	soluble
MSPILGYWKIKGLVQPTRLLLEYLEEKYEEHLYERDEGDKWRNKKFELGLEFPNLPYYIDGDVKLTQSMAIIRYIADKHNMLGGCPKERAEISMLEGAVLDIRYGVSRIAYSKDFETLKVDFLSKLPEMLKMFEDRLCHKTYLNGDHVTHPDFMLYDALDVVLYMDPMCLDAFPKLVCFKKRIEAIPQIDKYLKSSKYIAWPLQGWQATFGGGDHPPKSDLVPRGSSYYQEAKSSKIMESFKNMVPQQALVNSS	soluble
SATEPPSPLRVEAPGPPEMRTSPAIESTPEGTPQPAGGRLRFLNGCVPLSHQVAGHMYGKDKVGILQHPDGTVLKQLQPPPRGPRELEFYNMVYAADCFDGVLLELRKYLPKYYGIWSPPTAPNDLYLKLEDVTHKFNKPCIMDVKIGQKSYDPFASSEKIQQQVSKYPLMEEIGFLVLGMRVYHVHSDSYETENQHYGRSLTKETIKDGVSRFFHNGYCLRKDAVAASIQKIEKILQWFENQKQLNFYASSLLFVYEGSSQPTTTKLNDRTLAEKFLSKGQLSDTEVLEYNNNFHVLSSTANGKIESSVGKSLSKMYARHRKIYTKKHHSQTSLKVENLEQDNGWKSMSQEHLNGNVLSQLEKVFYHLPTGCQEIAEVEVRMIDFAHVFPSNTIDEGYVYGLKHLISVLRSILDN	not soluble

Source: the DeepSol protein solubility set
